Data reported in PubChem BioAssay AID588473 (Sanford-Burnham Center for Chemical Genomics, 2011).
The list shows a part of the results, in another mix than the full data. Active and inactive are the calls of the source.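 How the source made its calls: active means activation of at least 50%, plus an integration ratio under a set limit after plate pattern correction; inactive means the rest.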

system: CRF-binding protein / CRF receptor 2 complex (human); assay: activators of CRF-R2 with CRF-BP – cell-based, HEK293, calcium dye fluorescence, uHTS, primary screen (AID 588473); conditions: calcium dye fluorescence (FLIPR), at 13.2 µM, hits give high values, percent of saturating CRF peptide response;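 further: plate controls were neutral control wells without compound for no effect and CRF at EC100 for full effect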

Row | SMILES | activation
1 | O=[As](O)(c1cccs1)c1cccs1 | inactive: 0.18%
2 | O=P1(Nc2ccc(Br)cn2)COc2ccccc2OC1 | inactive: -1.76%
3 | NS(=O)(=O)c1cccc(NC(=O)COC(=O)C(O)(c2ccccc2)c2ccccc2)c1 | inactive: -2.93%
4 | CC1CCC(C(C)C)C(OP(=O)(Nc2ccccn2)c2ccccc2)C1 (stereo not given) | inactive: -0.62%
5 | Cc1ccc(C(=O)OC2CN3CCC2CC3)cc1 (stereo not given) | inactive: 1.54%
6 | Cc1nn(-c2ccccc2)c2c1P(=O)(N1CCOCC1)N(C)C(c1ccccc1)=N2 (stereo not given) | inactive: 0.14%
7 | CN(C)C1(CNC(=O)c2ccc(S(C)(=O)=O)cc2)CCCCC1 | inactive: -0.68%
8 | CCCC1OP(=O)(Nc2ccccc2)OCC1CC (stereo not given) | inactive: -0.28%
9 | O=C(/C=C/c1ccccc1)OC1CN2CCC1CC2 (stereo not given) | inactive: 1.56%
10 | COc1ccccc1CNC(=O)COC(=O)C(O)(c1ccccc1)c1ccccc1 | inactive: -1.18%
11 | CC(C)/C=N\N=C(\N)N[N+](=O)[O-] | inactive: 3.8%
12 | CN(C(=O)Cc1ccc(Cl)c(Cl)c1)[C@@H]1CCCC[C@H]1N1CCCC1 | inactive: -2.42%
13 | CC1(CBr)Cn2c(nc3ccccc3c2=O)S1 (stereo not given) | inactive: -0.05%
14 | CCOP(=O)(NC(=NC(C)c1ccccc1)NC(C)c1ccccc1)OCC (stereo not given) | inactive: -0.78%
15 | O=P1(Nc2ccccn2)COc2ccccc2OC1 | inactive: 0.67%
16 | CCC1=CC2Cc3nc4ccc(Cl)cc4c(N)c3C(C1)C2 (stereo not given) | inactive: 1.58%
17 | CCOP(=O)(Nc1ccc(C)cn1)OCC | inactive: 0.3%
18 | CN(CCCl)Cc1cc(Cl)c(NC2=NCCN2)c(Cl)c1 | inactive: 1.25%
19 | CC(C)(C)C(=O)NC(Sc1ncccn1)C(Cl)(Cl)Cl (stereo not given) | inactive: 1.3%
20 | O=P1(N(CCCl)CCCl)NCCC(C(F)(F)F)O1 (stereo not given) | inactive: 24.2%
21 | Clc1n[nH]nc1-c1nn[nH][15n]1 | inactive: 4.31%
22 | Cc1ccc(NCCc2c([N+](=O)[O-])cc([N+](=O)[O-])cc2[N+](=O)[O-])cc1 | inactive: -3.83%
23 | Nc1cccc2c([As](=O)(O)O)cccc12 | inactive: 40.3%

Row | SMILES | activation
24 | CCCOP(=S)(Nc1nc(N)cc(=O)[nH]1)OCCC | inactive: -1.95%
25 | CCOP(=O)(Nc1cccc2ccccc12)OCC | inactive: -1.08%
26 | COc1cc(C2NCCC3(OCCO3)C2(C)C)cc(OC)c1OC (stereo not given) | inactive: 3.54%
27 | O=C(OC1CN2CCC1CC2)c1ccc(Cl)cc1 (stereo not given) | inactive: -0.49%
28 | CS(=O)(=O)c1ccc(Cl)c(NC(=O)COC(=O)C(O)(c2ccccc2)c2ccccc2)c1 | inactive: -1.73%
29 | O=[As](O)(O)c1cccnc1 | inactive: 1.2%
30 | COc1cc(C(=O)NCC2(N3CCOCC3)CCCCC2)cc(Cl)c1OC(C)C | inactive: -4.06%
31 | Cc1cccc(OCC(=O)OC2CN3CCC2CC3)c1 (stereo not given) | inactive: -0.12%
32 | O=[As](O)(c1cccc(O)c1)c1cccc(O)c1 | inactive: -0.59%
33 | NC(=O)Nc1ccc([As](=O)(O)O)cc1 | inactive: -0.72%
34 | CCOP1(=S)c2c(C)nn(CCC#N)c2N=C(c2ccc(F)cc2)N1C (stereo not given) | inactive: 0.04%
35 | CN(C(=O)Cc1ccccc1)[C@@H]1CC[C@]2(CCCO2)C[C@H]1N1CCCC1 | inactive: 7.65%
36 | N#CCCN(C(=O)COC(=O)C(O)(c1ccccc1)c1ccccc1)c1ccc(F)cc1 | inactive: 3.29%
37 | CN(C(=O)Cc1ccc(Cl)c(Cl)c1)[C@H]1CC[C@@]2(CCCO2)C[C@@H]1N1CCCC1 | inactive: -0.51%
38 | O=[N+]([O-])c1ccc2c(c1)nnn2O | inactive: 1.68%
39 | CN(C)C(=O)c1cc([N+](=O)[O-])cc2c1-c1c(cc([N+](=O)[O-])cc1[N+](=O)[O-])C2=O | inactive: -6.47%
40 | O=P(Nc1nccs1)(Oc1ccccc1)Oc1ccccc1 | inactive: 0.61%
41 | O=P(Nc1nccs1)(c1ccccc1)c1nc2ccccc2s1 (stereo not given) | inactive: 1.24%
42 | CCOP1(=S)c2c(C)nn(CCC#N)c2N=C(c2ccccc2F)N1C (stereo not given) | inactive: -1.01%
43 | CS(=O)(=O)c1cc([N+](=O)[O-])c2no[n+]([O-])c2c1 | inactive: 27.4%
44 | Nc1ccccc1[As](=O)(O)c1ccccc1 | inactive: 2.14%
45 | O=C(O)COc1ccc([As](=O)(O)O)cc1[N+](=O)[O-] | inactive: 0.77%
